Reference: patent publication US20150202287A1, “COMBINATION THERAPIES COMPRISING ANTI-ERBB3 AGENTS” (Merrimack Pharmaceuticals, Inc., priority 2012, published 2015)

Experiments:
NCI-N87 cells = assay: T-DM1 and heregulin dose matrix cell viability, NCI-N87
Procedure: Cells were allowed to adhere 16-20 hours at +37° C., 5% CO2. Cells were stimulated for 4 hours by adding 5 μl of culture media containing recombinant human NRG-1-β1 EGF domain (HRG1) bringing the final HRG1 stimulation concentration to 0, 0.313, 0.625, 1.25, 2.5, 5 or 10 nM. […] All conditions were assayed in biological quadruplicates. Cells were incubated for 72 h at +37° C., 5% CO2. Cell viability was determined by CellTiter-Glo® Luminescent Cell Viability Assay by adding 20 μl of reconstituted CellTiter-Glo reagent per well, incubating plated for 10 minutes at RT in an orbital shaker and reading the luminescence signal using Biotek™ Synergy H1 Hybrid Reader.

NCI-N87-GFP-HRG cells = conditions: presence of endogenous heregulin, 0.04111152 μg/mL T-DM1, 72 h
Procedure: (§1) Cells were allowed to adhere 16-20 hours at +37° C., 5% CO2. […] All conditions were assayed in biological quadruplicates. Cells were incubated for 72 h at +37° C., 5% CO2.

NCI-N87-GFP cells = conditions: absence of endogenous heregulin, 0.1 μg/mL T-DM1, 72 h
Procedure: as §1

Q: What does the source list for ado-trastuzumab emtansine [T-DM1]?
A: cell viability (NCI-N87 cells; HRG 1.25 nM, T-DM1 0.37037 μg/ml, with MM-111 1 μM, 72 h): 43.031 % of control; cell viability (NCI-N87 cells; HRG 1.25 nM, T-DM1 0.37037 μg/ml, without MM-111, 72 h): 69.3 % of control; cell viability (NCI-N87 cells; HRG 1.25 nM, T-DM1 1.111111 μg/ml, with MM-111 1 μM, 72 h): 40.2014 % of control; cell viability (NCI-N87 cells; HRG 1.25 nM, T-DM1 1.111111 μg/ml, without MM-111, 72 h): 69.4 % of control; cell viability (NCI-N87 cells; HRG 1.25 nM, T-DM1 3.333333 μg/ml, with MM-111 1 μM, 72 h): 37.53 % of control; cell viability (NCI-N87 cells; HRG 1.25 nM, T-DM1 3.333333 μg/ml, without MM-111, 72 h): 58.9 % of control; cell viability (NCI-N87 cells; HRG 1.25 nM, T-DM1 10 μg/ml, with MM-111 1 μM, 72 h): 35.5527 % of control; cell viability (NCI-N87 cells; HRG 1.25 nM, T-DM1 10 μg/ml, without MM-111, 72 h): 68.77 % of control; cell viability (NCI-N87 cells; HRG 2.5 nM, T-DM1 0.001524 μg/ml, with MM-111 1 μM, 72 h): 117.2117 % of control; cell viability (NCI-N87 cells; HRG 2.5 nM, T-DM1 0.001524 μg/ml, without MM-111, 72 h): 90.8 % of control; cell viability (NCI-N87 cells; HRG 2.5 nM, T-DM1 0.004572 μg/ml, with MM-111 1 μM, 72 h): 99.28 % of control; cell viability (NCI-N87 cells; HRG 2.5 nM, T-DM1 0.004572 μg/ml, without MM-111, 72 h): 84.1 % of control; cell viability (NCI-N87 cells; HRG 2.5 nM, T-DM1 0.013717 μg/ml, with MM-111 1 μM, 72 h): 90.13 % of control; cell viability (NCI-N87 cells; HRG 2.5 nM, T-DM1 0.013717 μg/ml, without MM-111, 72 h): 83.77 % of control; cell viability (NCI-N87 cells; HRG 2.5 nM, T-DM1 0.041152 μg/ml, with MM-111 1 μM, 72 h): 63.71 % of control; cell viability (NCI-N87 cells; HRG 2.5 nM, T-DM1 0.041152 μg/ml, without MM-111, 72 h): 69.34 % of control; cell viability (NCI-N87 cells; HRG 2.5 nM, T-DM1 0.123457 μg/ml, with MM-111 1 μM, 72 h): 52.76 % of control; cell viability (NCI-N87 cells; HRG 2.5 nM, T-DM1 0.123457 μg/ml, without MM-111, 72 h): 74.67 % of control; cell viability (NCI-N87 cells; HRG 2.5 nM, T-DM1 0.37037 μg/ml, with MM-111 1 μM, 72 h): 43.73 % of control; cell viability (NCI-N87 cells; HRG 2.5 nM, T-DM1 0.37037 μg/ml, without MM-111, 72 h): 67.24 % of control; cell viability (NCI-N87 cells; HRG 2.5 nM, T-DM1 1.111111 μg/ml, with MM-111 1 μM, 72 h): 41.27 % of control; cell viability (NCI-N87 cells; HRG 2.5 nM, T-DM1 1.111111 μg/ml, without MM-111, 72 h): 72.16 % of control; cell viability (NCI-N87 cells; HRG 2.5 nM, T-DM1 3.333333 μg/ml, with MM-111 1 μM, 72 h): 36.42 % of control; cell viability (NCI-N87 cells; HRG 2.5 nM, T-DM1 3.333333 μg/ml, without MM-111, 72 h): 66.06 % of control; cell viability (NCI-N87 cells; HRG 2.5 nM, T-DM1 10 μg/ml, with MM-111 1 μM, 72 h): 38.53 % of control; cell viability (NCI-N87 cells; HRG 2.5 nM, T-DM1 10 μg/ml, without MM-111, 72 h): 65.69 % of control; cell viability (NCI-N87 cells; HRG 5 nM, T-DM1 0.001524 μg/ml, with MM-111 1 μM, 72 h): 128.6171 % of control; cell viability (NCI-N87 cells; HRG 5 nM, T-DM1 0.001524 μg/ml, without MM-111, 72 h): 94.98 % of control; cell viability (NCI-N87 cells; HRG 5 nM, T-DM1 0.004572 μg/ml, with MM-111 1 μM, 72 h): 118.6616 % of control; cell viability (NCI-N87 cells; HRG 5 nM, T-DM1 0.004572 μg/ml, without MM-111, 72 h): 89.1 % of control; cell viability (NCI-N87 cells; HRG 5 nM, T-DM1 0.013717 μg/ml, with MM-111 1 μM, 72 h): 95.05 % of control; cell viability (NCI-N87 cells; HRG 5 nM, T-DM1 0.013717 μg/ml, without MM-111, 72 h): 80.42 % of control; cell viability (NCI-N87 cells; HRG 5 nM, T-DM1 0.041152 μg/ml, with MM-111 1 μM, 72 h): 70.74 % of control; cell viability (NCI-N87 cells; HRG 5 nM, T-DM1 0.041152 μg/ml, without MM-111, 72 h): 71.02 % of control; cell viability (NCI-N87 cells; HRG 5 nM, T-DM1 0.123457 μg/ml, with MM-111 1 μM, 72 h): 51.52 % of control; cell viability (NCI-N87 cells; HRG 5 nM, T-DM1 0.123457 μg/ml, without MM-111, 72 h): 73.54 % of control; cell viability (NCI-N87 cells; HRG 5 nM, T-DM1 0.37037 μg/ml, with MM-111 1 μM, 72 h): 43.88 % of control; cell viability (NCI-N87 cells; HRG 5 nM, T-DM1 0.37037 μg/ml, without MM-111, 72 h): 68.99 % of control; cell viability (NCI-N87 cells; HRG 5 nM, T-DM1 1.111111 μg/ml, with MM-111 1 μM, 72 h): 43.0434 % of control; cell viability (NCI-N87 cells; HRG 5 nM, T-DM1 1.111111 μg/ml, without MM-111, 72 h): 75.73 % of control; cell viability (NCI-N87 cells; HRG 5 nM, T-DM1 3.333333 μg/ml, with MM-111 1 μM, 72 h): 42.54 % of control; cell viability (NCI-N87 cells; HRG 5 nM, T-DM1 3.333333 μg/ml, without MM-111, 72 h): 64.95 % of control; cell viability (NCI-N87 cells; HRG 5 nM, T-DM1 10 μg/ml, with MM-111 1 μM, 72 h): 40.95 % of control; cell viability (NCI-N87 cells; HRG 5 nM, T-DM1 10 μg/ml, without MM-111, 72 h): 63.22 % of control; cell viability (NCI-N87 cells; HRG 10 nM, T-DM1 0.001524 μg/ml, with MM-111 1 μM, 72 h): 140.3695 % of control; cell viability (NCI-N87 cells; HRG 10 nM, T-DM1 0.001524 μg/ml, without MM-111, 72 h): 88.14 % of control; cell viability (NCI-N87 cells; HRG 10 nM, T-DM1 0.004572 μg/ml, with MM-111 1 μM, 72 h): 122.2993 % of control; cell viability (NCI-N87 cells; HRG 10 nM, T-DM1 0.004572 μg/ml, without MM-111, 72 h): 101.4929 % of control; cell viability (NCI-N87 cells; HRG 10 nM, T-DM1 0.013717 μg/ml, with MM-111 1 μM, 72 h): 95.17 % of control; cell viability (NCI-N87 cells; HRG 10 nM, T-DM1 0.013717 μg/ml, without MM-111, 72 h): 80.41 % of control; cell viability (NCI-N87 cells; HRG 10 nM, T-DM1 0.041152 μg/ml, with MM-111 1 μM, 72 h): 70.82 % of control; cell viability (NCI-N87 cells; HRG 10 nM, T-DM1 0.041152 μg/ml, without MM-111, 72 h): 69.82 % of control; cell viability (NCI-N87 cells; HRG 10 nM, T-DM1 0.123457 μg/ml, with MM-111 1 μM, 72 h): 52.82 % of control; cell viability (NCI-N87 cells; HRG 10 nM, T-DM1 0.123457 μg/ml, without MM-111, 72 h): 64.33 % of control; cell viability (NCI-N87 cells; HRG 10 nM, T-DM1 0.37037 μg/ml, with MM-111 1 μM, 72 h): 47.2081 % of control; cell viability (NCI-N87 cells; HRG 10 nM, T-DM1 0.37037 μg/ml, without MM-111, 72 h): 61.13 % of control; cell viability (NCI-N87 cells; HRG 10 nM, T-DM1 1.111111 μg/ml, with MM-111 1 μM, 72 h): 43.46 % of control; cell viability (NCI-N87 cells; HRG 10 nM, T-DM1 1.111111 μg/ml, without MM-111, 72 h): 62.15 % of control; cell viability (NCI-N87 cells; HRG 10 nM, T-DM1 3.333333 μg/ml, with MM-111 1 μM, 72 h): 42.6 % of control; cell viability (NCI-N87 cells; HRG 10 nM, T-DM1 3.333333 μg/ml, without MM-111, 72 h): 59.46 % of control; cell viability (NCI-N87 cells; HRG 10 nM, T-DM1 10 μg/ml, with MM-111 1 μM, 72 h): 42.13 % of control; cell viability (NCI-N87 cells; HRG 10 nM, T-DM1 10 μg/ml, without MM-111, 72 h): 68.79 % of control; reduction of cell viability (NCI-N87-GFP-HRG cells): approximately 47.3%; reduction of cell viability (NCI-N87-GFP cells): approximately 54.6%
